The results in this text go back to PubChem BioAssay AID2520 (Sanford-Burnham Center for Chemical Genomics, 2010).

By UniProt entry, the sequences of proteins in these tests, tags left out. Where a name states a change or a piece, a line headed by the entry shows the natural chain unless it says otherwise.
UniProt P35414: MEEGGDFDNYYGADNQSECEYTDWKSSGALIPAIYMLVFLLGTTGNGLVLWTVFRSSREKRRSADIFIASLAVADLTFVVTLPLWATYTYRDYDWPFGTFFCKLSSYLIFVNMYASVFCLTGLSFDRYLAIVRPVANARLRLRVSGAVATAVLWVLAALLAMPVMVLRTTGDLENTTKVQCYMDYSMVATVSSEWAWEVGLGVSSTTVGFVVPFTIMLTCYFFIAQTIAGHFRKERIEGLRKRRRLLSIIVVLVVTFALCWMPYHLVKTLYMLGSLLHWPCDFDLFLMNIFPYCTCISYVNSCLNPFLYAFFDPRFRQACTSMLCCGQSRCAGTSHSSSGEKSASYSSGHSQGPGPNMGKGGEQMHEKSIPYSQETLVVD

This is a selection; strong and weak results do not stand in their true shares. Activity calls are given as the source filed them.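 Rule for the calls: active = activation more than six SD over the plate average, tested at 20 µM; inactive = the rest.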

The target in the experiment is Apelin receptor (Homo sapiens) (UniProt P35414). The experiment is described as follows: APJ activation via beta-arrestin recruitment – CHO-K1 cells, PathHunter beta-arrestin, luminescence, primary screen (AID 2520). Conditions: at 20 µM, hits give high values, 0% DMSO wells, 100% apelin. A digest of the protocol:
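system = engineered CHO-K1 APJ arrestin reporter cells | input = 1000 cells per well | timing = overnight seeding, 90 min compound at 25 °C, 1 h detection | measured by = enzyme-fragment complementation luminescence | read-out = beta-arrestin recruitment to APJ as agonist activity, luminescent signal | control set = negative DMSO alone, positive Apelin-13 at 10 nM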
For orientation: Recruitment of arrestin is a read-out of receptor activation apart from second messengers.
Consider `O=C(/C=C/c1ccccc1)OC1CN2CCC1CC2` (stereo not drawn), for which the activation was inactive: -1.6%.
With `O=P1(Nc2ncccn2)COc2ccccc2OC1`, the activation was inactive: 6.79%.
As for `Nc1cccc([As](=O)(O)c2ccccc2)c1`, the figure is inactive: -5.1%; as for `O=P1(Nc2ccc(Br)cn2)COc2ccccc2OC1`, inactive: -2.52%.
For `NS(=O)(=O)c1cccc(NC(=O)COC(=O)C(O)(c2ccccc2)c2ccccc2)c1`, the activation is inactive: -2%.
In the case of `O=[As](O)(c1cccs1)c1cccs1` it was inactive: -3.24%.
Consider `Cc1ccc(OCC(=O)OC2CN3CCC2CC3)cc1` (stereo not drawn), for which the activation was inactive: 0.601%.
Turning to `O=P1(Nc2ccccn2)COc2ccccc2OC1`, the activation is inactive: -0.62%.
In the case of `CCC1=CC2Cc3nc4ccc(Cl)cc4c(N)c3C(C1)C2` (stereo not drawn) it was inactive: 16.9%; in that of `CCOP(=O)(NC(=NC(C)c1ccccc1)NC(C)c1ccccc1)OCC` (stereo not drawn), inactive: -0.963%.
In the case of `CN(CCCl)Cc1cc(Cl)c(NC2=NCCN2)c(Cl)c1` it was inactive: -6.02%; in that of `CCOP(=O)(Nc1ccc(C)cn1)OCC`, inactive: -3%.
In the case of `Clc1n[nH]nc1-c1nn[nH][15n]1`, the activation is inactive: -3.73%.
Regarding `CC(C)(C)C(=O)NC(Sc1ncccn1)C(Cl)(Cl)Cl` (stereo not drawn), the activation was inactive: -0.628%.
For the compound `COc1ccccc1CNC(=O)COC(=O)C(O)(c1ccccc1)c1ccccc1`, the activation was inactive: -4.58%.
As for `CC(C)/C=N\N=C(\N)N[N+](=O)[O-]`, the figure is inactive: -1.17%; as for `CN(C(=O)Cc1ccc(Cl)c(Cl)c1)[C@@H]1CCCC[C@H]1N1CCCC1`, inactive: -5.02%.
In the case of `O=[As](O)(c1ccccc1Br)c1ccccc1Br` it was inactive: 1.6%.
As for `CC1(CBr)Cn2c(nc3ccccc3c2=O)S1` (stereo not drawn), the figure is inactive: -1.65%; as for `COP1(=S)c2c(C)nn(CCC#N)c2N=C(c2ccc(F)cc2)N1C` (stereo not drawn), inactive: 1.12%; as for `O=C(COc1ccccc1)OC1CN2CCC1CC2` (stereo not drawn), inactive: 3.9%.
Turning to `O=C(Nc1ccncc1[N+](=O)[O-])c1ccc([N+](=O)[O-])cc1[N+](=O)[O-]`, the activation is inactive: 7.76%.
As for `O=C(OC1CN2CCC1CC2)c1cccc([N+](=O)[O-])c1` (stereo not drawn), the figure is inactive: -2.18%; as for `CCOC(=O)c1ccc(NC(=O)C(C)(CCl)SC)cc1` (stereo not drawn), inactive: -3.2%.
In the case of `CCC(C)N(CC(C)C)C(=S)SC(NC(C)=O)C(Cl)(Cl)Cl` (stereo not drawn) it was inactive: -5.93%; in that of `CCOC(=O)Nc1ccc([As](=O)(O)O)c(O)c1`, inactive: -2.73%.
For the compound `CCCCOc1ccc(C(=O)NCC2(N3CCCCC3)CCCCC2)cc1OC`, the activation is inactive: -4.28%.
Regarding `Cc1cc(SC(NC(=O)c2ccccc2)C(Cl)(Cl)Cl)nc(C(C)C)n1` (stereo not drawn), the activation was inactive: -2.65%.
As for `CCOC(=O)Nc1cccc([As](=O)(O)O)c1`, the figure is inactive: -1.46%; as for `O=P(Nc1ccccn1)(c1cccc2ccccc12)c1cccc2ccccc12`, inactive: 2.39%; as for `Cc1cc(SC(NC=O)C(Cl)(Cl)Cl)ncn1` (stereo not drawn), inactive: 0.315%.
Consider `O=[As](O)(c1ccc(O)cc1)c1ccccc1O`, for which the activation was inactive: -2.01%.
As for `C[As](=O)(O)c1cccc(C(=O)O)c1`, the figure is inactive: -1.75%.
In the case of `COc1cc(C(=O)NCC2(N3CCOCC3)CCCCC2)ccc1OCC(C)C`, the activation was inactive: -3.33%.
As for `Cc1ccc(OP(=O)(Nc2ccc([N+](=O)[O-])cn2)Oc2ccc(C)cc2)cc1`, the figure is inactive: -0.781%; as for `Cc1ccc2nc3c(c(C)c2c1)CC(C(Cl)Cl)S3` (stereo not drawn), inactive: -3.03%; as for `ClCCSc1nnc(-c2cccnc2)o1`, inactive: 3.66%.
As for `CC(C)c1ccc(OP(=O)(Nc2ccccn2)Oc2ccccc2F)cc1` (stereo not drawn), the figure is inactive: 0.67%; as for `O=C(OC1CN2CCC1CC2)c1cccc2[nH]cnc12` (stereo not drawn), inactive: 3.2%.
In the case of `CCN(CC)C(=S)SC(NC=O)C(Cl)(Cl)Cl` (stereo not drawn) it was inactive: -1.29%; in that of `CC(C)NC(=O)NP(=O)(Oc1ccccc1)Oc1ccccc1`, inactive: -2.37%; in that of `O=[N+]([O-])c1cc([N+](=O)[O-])c(-c2ccn[nH]2)s1`, inactive: 5.78%.
As for `Cc1c2c(nc3ccccc13)SC(C(Cl)Cl)C2` (stereo not drawn), the activation is inactive: -3.73%.
As for `O=C(OC1CN2CCC1CC2)C12CC3CC(CC(C3)C1)C2` (stereo not drawn), the figure is inactive: -3.24%; as for `Cc1cc(=O)[nH]c(N[N+](=O)[O-])n1`, inactive: -3.49%.
In the case of `COc1ccc2nc(NP(=O)(c3ccccc3)c3ccccc3)sc2c1` it was inactive: -2.34%; in that of `COc1cc(I)ccc1[As](=O)(O)O`, inactive: -2.27%.
As for `COc1ccc(N/C(=N/P(=O)(N2CCOCC2)N2CCOCC2)N2CCOCC2)cc1`, the figure is inactive: 0.0507%.
